Sequences of proteins named here, by UniProt entry; tags and fusion partners are left off. A line that says so, or that is headed by a name, gives the form on record, which may keep a tag or linker.
UniProt Q9GZT9, with tags, fused parts or gaps DEL76-177: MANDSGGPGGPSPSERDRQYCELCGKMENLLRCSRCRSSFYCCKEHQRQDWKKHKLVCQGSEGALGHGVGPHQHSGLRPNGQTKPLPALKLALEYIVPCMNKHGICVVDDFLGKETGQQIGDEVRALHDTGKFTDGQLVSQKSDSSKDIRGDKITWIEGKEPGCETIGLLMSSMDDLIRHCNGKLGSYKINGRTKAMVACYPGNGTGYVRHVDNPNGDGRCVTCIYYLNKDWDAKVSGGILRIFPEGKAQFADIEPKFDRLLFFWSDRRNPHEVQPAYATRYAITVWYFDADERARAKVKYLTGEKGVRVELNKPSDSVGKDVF

According to US6566088B1, “Prolyl-4-hydroxylases” (Board of Regents, The University of Texas System, priority 2001, dated 2003):

Target: T1, HPH 2 (Homo sapiens, UniProt Q9GZT9, DEL76-177)
T1 construct: MBP (N); made in house; host or cells: E. coli BL21-CodonPlus-RIL
Test: Activity of purified recombinant HPH 2 on HIF-1a peptide substrate
Type: biochemical

For `O=C(O)CCC(=O)C(=O)O` [2-oxoglutarate], the “effect on activity of the HPH 2 enzyme” value was “greatly stimulated”.
